Reference: patent EP4830731A1, “TUMOR MICROENVIRONMENT-ACTIVATED DRUG CONJUGATE AND ANTIBODY-DRUG CONJUGATE” (dated 2026)

How the values were obtained:
[1] = system: acidified CT-26 tumor tissue homogenate; assay: Activation and release of drug in tumor tissue homogenate, time course; settings: CT-26 tumor tissue homogenate pH 5.0, 37°C; S5 releases T785, S16 releases Dxd
Procedure: (§1) A certain amount of the drug conjugates (S5, S16, Deruxtecan, Control Compound Y; wherein Control Compound Y is compound S1 in CN103011521B) were weighed, dissolved, and diluted tenfold to a concentration of 0.1 mmol/ml. The drug conjugates were added at a concentration of 1 mg/ml to 100 µg of acidified CT-26 tumor tissue homogenate (pH 5.0) at 37°C. The enzymes in the tumor tissue homogenate were able to release the drug, and the released drug was detected by HPLC to compare the activation efficiency of the linker in the tumor tissue.

[2] = system: acidified CT-26 tumor tissue homogenate; assay: Enzymatic cleavage (activation) in tumor tissue homogenate; settings: acidified CT-26 tumor tissue homogenate pH 5.0, 37°C, released drug by HPLC
Procedure: as §1, with “conjugates” for “conjugates (S5, S16, Deruxtecan, Control Compound Y; wherein Control Compound Y is compound S1 in CN103011521B)”, “mM/ml.” for “mmol/ml.”

[3] = Human plasma stability (HPLC); settings: 37 °C
Procedure: An appropriate amount of sample was weighed and dissolved in DMSO to prepare a 1 mM solution. Human plasma was added at a volume ratio of 1:9, and the mixture was incubated in an incubator at 37 °C. Aliquots were taken at 0, 2, 4, 6, and 24 hours, and DMSO/MeOH (1:1) was added at a volume ratio of 1:3 to remove proteins. The mixture was centrifuged at 12000 rpm for 5 minutes, and the supernatant was collected. The HPLC analysis was performed using the method described above (Agilent 1260, column: Eclipse Plus C18, 4.6 * 250 mm, 5 µm; mobile phase A: 0.1% TFA + H2O; mobile phase B: CH3CN; flow rate: 1.0 mL/min; column temperature: 30 °C; detection wavelength: 214 nm).

[4] = system: CT26 cells; assay: CT26 tumor model, S5 alone and with CTLA-4 antibody; settings: CT26 in BALB/c mice; tail vein, three weeks; CTLA-4 5mg/kg twice a week; TMEA-TRL7/8 1.785 µmol/kg once a week
Procedure: • 1. Animals: BALB/c mice, 8-week-old females (Shanghai Lingchang Biotechnology Co., Ltd.). • 2. Cells: Cell Bank of Chinese Academy of Sciences. Cells were cultured in RPMI Medium 1640 (1x) medium containing 10% fetal bovine serum at 37°C in 5% CO2, passaged every 3 days, and cells within 15 passages were used. • 3. Tumor induction: 0.3×10^6 CT26 cells were subcutaneously injected into the back of BALB/c mice. When the tumor grew to about 160 mm^3, the mice were randomly grouped and treatment was started. • 4. Treatment process: CTLA-4 was administered twice a week, and TMEA-TRL7/8 was administered once a week, for three weeks, by tail vein administration.

[5] = Aqueous solution stability (HPLC); settings: content relative to 0 hour by HPLC, 0.2 µmol/mL in DMSO/water, water bath 25 °C / 37 °C
Procedure: Each drug conjugate compound was accurately weighed and dissolved in a certain amount of DMSO to prepare a stock solution at a concentration of 10 µmol/mL. Then, 10 µL of the stock solution was added to 80 µL of DMSO to dilute to a concentration of 1 µmol/mL, and then further diluted with pure water at a ratio of 1:4 to achieve a sample solution concentration of 0.2 µmol/mL. After the sample became clear, it was placed in a water bath at 25 °C / 37 °C. Samples were taken at 0 hour and 24 hours and analyzed by HPLC (Agilent 1260, column: Eclipse Plus C18, 4.6×250 mm, 5 µm; mobile phase A: 0.1% TFA + H2O; mobile phase B: CH3CN; flow rate: 1.0 mL/min; column temperature: 30 °C; detection wavelength: 214 nm) to determine the content of the drug conjugate relative to that at 0 hour, thereby obtaining the solution stability data of the different compounds.

| SMILES | time at which release of drug started [1] [min] | Enzymatic cleavage efficiency % (2 h) [2] [%] | Plasma stability % (24 h) [3] [%] | TGI (%) on day 27 [4] [%] | Tumor volume on day 27 [4] [mm^3] | Aqueous solution stability % (24 h) [5] [%] |
| --- | --- | --- | --- | --- | --- | --- |
| CCCCc1nc2c(N)nc3ccccc3c2n1CCCCNC(=O)[C@H](CC(N)=O)NC(=O)[C@H](C)NC(=O)[C@H](C)NC(=O)CCCCCN1C(=O)C=CC1=O | 5 | 95 | 99 | 80.33 | 604.86 | 100 |
| CCOCc1nc2c(NC(=O)[C@H](CC(N)=O)NC(=O)[C@H](C)NC(=O)[C@H](C)NC(=O)CCCCCN3C(=O)C=CC3=O)nc3ccccc3c2n1CC(C)(C)O | – | 91 | 80 | – | – | 95 |
